# AlphaSeq binding of Ab-14 heavy chain variants to a spike HR2 peptide

Reference: Li et al. 2023, doi:10.1038/s41467-023-39022-2. File: FLAb, binding data.

All variants were tested on one target, the spike HR2 peptide PDVDLGDISGINAS (SARS-CoV-2).

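The parent was found by panning a naive human phage display library on the peptide. Designed CDR sequences, proposed from the first random library and measured here. Group labels follow the data file (Ctrl: baseline library sampled from a position-specific scoring matrix, with some repeated check sequences; Rand: our label for a block that the file lists under HC and that is probably the random mutants of the ten best first-round binders; En: ensemble of fine-tuned language models; GP: Gaussian process model; GPLM: also part of the Gaussian process libraries; HC: hill climbing; Gen: genetic algorithm; Gibbs: Gibbs sampling; a sequence that several methods proposed may carry one label only). AlphaSeq pools MATa yeast showing the antibodies with MATalpha yeast showing the peptide. The frequency of each diploid, read from paired DNA barcodes, reflects how well the two displayed proteins bind. Scores were corrected for input abundance and mapped to Kd with protein pairs of known affinity run in the same pool. Each pool was mated in six replicate cultures.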

The variants keep the light chain, the linker and the frameworks of Ab-14 (scFv order VH, a (GGGGS)3 linker, VL).
VH: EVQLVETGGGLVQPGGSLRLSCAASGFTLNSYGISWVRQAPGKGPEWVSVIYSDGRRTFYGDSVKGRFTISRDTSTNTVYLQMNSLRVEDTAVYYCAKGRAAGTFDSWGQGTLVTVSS
VL: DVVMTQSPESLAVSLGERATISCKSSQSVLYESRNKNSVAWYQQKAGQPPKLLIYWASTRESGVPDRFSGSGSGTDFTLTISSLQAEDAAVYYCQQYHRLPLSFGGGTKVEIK

Variants are written as CDR1, CDR2 and CDR3 of the heavy chain (limits as in the source). Parent: GFTLNSYGIS, VIYSDGRRTFYGDSVK, GRAAGTFDS.
Values are log10 of the apparent Kd in nM; lower means stronger binding.
A mean of the replicates is given; it leaves out those without a signal.
Where no diploid with the target was found in any replicate, the entry reads "nd": below detection, most likely a poor binder, though not proof of it.
The parent sequence was in this pool as ten entries: three were never detected, three once, and four in most replicates, with averages from 0.34 to 2.37.

-0.49 (6 of 6 replicates; controls 0 of 18): GFDLNEYGIS / VIYADGRRTFYADSVK / GEEAGTFDM [En_HC].
nd (0 of 6 replicates; controls 0 of 18): GEQLDEYGIS / VIYADGRRTAYSQSVK / GQNGGIIDV [En_Gibbs].
2.00 (4 of 6 replicates; controls 0 of 18): GFDLNSYGIS / VIYSDGKRTFYGDSVK / GRTAGTFDA [GP_Gen].
nd (0 of 6 replicates; controls 0 of 18): GFTLNTYGIS / VIYSDGRRTFYGDSVK / GRAALTFDS [Ctrl].
-0.96 (6 of 6 replicates; controls 0 of 18): GFELNDYGIS / VIYSDGRRTFYDDSVK / GRTAGTFDS [GP_Gibbs].
-0.19 (6 of 6 replicates; controls 0 of 18): GFDLNSYGIS / VIYSDGRRTFYGDSVK / GKEAGTFDT [GP_Gen].
-0.47 (6 of 6 replicates; controls 0 of 18): GFDLNEYGIS / VIYADGRRTFYADSVK / GKAAGTFDL [En_HC].
-0.31 (6 of 6 replicates; controls 0 of 18): GFHLNEYGIS / VIYSDGRRTFYGDSVK / GRTAGTFDT [GPLM_Gen].
1.11 (6 of 6 replicates; controls 0 of 18): GFELNSYGIS / VIYSDGRRTFYADAVK / GRTAGTFDS [GPLM_Gen].
nd (0 of 6 replicates; controls 0 of 18): GFHLNSYGIS / VIYSDGRRTFYGPSVK / GRAAGTFES [Ctrl].
-0.16 (6 of 6 replicates; controls 0 of 18): GFDLNEYGIS / VIYADGMRTFYADDVK / GANAGTFDV [En_Gen].
-0.06 (1 of 6 replicates; controls 0 of 18): GFTLNSYGIS / VIYSDGRRTEYADSVK / GRAAGTFDS [Ctrl].
1.45 (5 of 6 replicates; controls 0 of 18): GFVLNSYGIS / VIYSDGRRTFYIDSVK / GNAAGTFDS [GPLM_Gibbs].
nd (0 of 6 replicates; controls 0 of 18): GFTLDSYGIS / VIYSDGRRTFYGDSEK / GPAAGTALS [Rand].
0.56 (6 of 6 replicates; controls 0 of 18): GFTLNSYGIS / VIYADGRRTFYGDSVK / GRVAGTFDI [GPLM_Gen].
1.59 (2 of 6 replicates; controls 1 of 18): GFDLEAYGIS / VIYADGVRTGYVNKVK / GDTGGMFDD [En_Gibbs].
1.85 (3 of 6 replicates; controls 0 of 18): GFELNSYGIS / VIYSDGRRTFYADMVK / GKAAGTFDV [GP_Gibbs].
-0.32 (6 of 6 replicates; controls 0 of 18): GFDLNEYGIS / VIYADGRRTAYIDDVK / GEAAGTFDI [En_HC].
-0.47 (6 of 6 replicates; controls 0 of 18): GFDLNEYGIS / VIYADGVRTAYSDSVK / GNNAGTFDL [En_Gen].
0.31 (6 of 6 replicates; controls 0 of 18): GFTLNEYGIS / VIYSDGRRTFYMDSVK / GREAGTFDS [GPLM_HC].
0.00 (6 of 6 replicates; controls 1 of 18): GFDLNSYGIS / VIYSDGRRTFYGDKVK / GQTAGTFDS [GP_Gen].
0.71 (2 of 6 replicates; controls 0 of 18): GFTLNDYGIS / VIYSDGLRTFYGDSVK / GREGGTFDS [Ctrl].
nd (0 of 6 replicates; controls 1 of 18): GFTLNLYGIS / VIYSDGRRTFYGDSVK / GRAAGTFDY [Ctrl].
-0.58 (6 of 6 replicates; controls 0 of 18): GFNLDEYGIS / VIYADGRRTFYADSVK / GEVAGTFDF [En_HC].
nd (0 of 6 replicates; controls 0 of 18): GFEIEEYGIS / VIYADGQRTFYADNVK / GKVDTVVMY [En_Gibbs].
nd (0 of 6 replicates; controls 1 of 18): GFTLNEYGIS / VIYSDGRRTFYGDSVK / GRAALTFWF [GPLM_HC].
-0.07 (6 of 6 replicates; controls 0 of 18): GFWLNDYGIS / VIYADGRRTFYGDSVK / GHAAGTFDS [GP_HC].
-0.08 (6 of 6 replicates; controls 1 of 18): SFNLNSYGIS / VIYSDGRRTFYADSVK / GRTAGTFDS [GP_Gen].
1.72 (2 of 6 replicates; controls 0 of 18): GFTLNSYGIS / VIYSDGRRTFYGDSVE / GRAAGTFDS [Ctrl].
-0.40 (4 of 6 replicates; controls 0 of 18): GFDLNEYGIS / VIYADGVRTFYADSVK / GTNGGTFDV [En_HC].
-0.37 (6 of 6 replicates; controls 0 of 18): GFSLDEYGIS / VIYADGRRTFYADSVK / GNSAGTFDV [En_HC].

From the list, the first 2 with no signal in any replicate:

{"CDR-H1": "GEQLDEYGIS", "CDR-H2": "VIYADGRRTAYSQSVK", "CDR-H3": "GQNGGIIDV", "group": "En_Gibbs", "mean, log10 nM": "nd", "detected": "0/6", "signal with controls": "0/18"}
{"CDR-H1": "GFTLNTYGIS", "CDR-H2": "VIYSDGRRTFYGDSVK", "CDR-H3": "GRAALTFDS", "group": "Ctrl", "mean, log10 nM": "nd", "detected": "0/6", "signal with controls": "0/18"}

A sequence measured in both rounds can read differently, since the two assays cover different ranges.
Background: pairings of all heavy chain designs with three empty control strains gave a value in 1% of cases (median 2.08, 5th percentile 0.84). Values in that range, when seen in few replicates, are hard to tell from nonspecific mating. The control count says in how many pairings with the empty strains this scFv gave a signal.
The authors averaged sequences with at least three values out of six and counted those with two or fewer as poor binders.